According to PMC6662923 (Chemical research in toxicology, 2018):

System: male Swiss Webster mice
Assay: Lethality assay in mice
Details: oral doses 50, 25, 12.5 and 6.25 mg/kg

CC[C@@H]1CN2CC[C@@]3(O)C(=Nc4cccc(OC)c43)[C@@H]2C[C@@H]1/C(=C\OC)C(=O)OC [7-hydroxymitragynine, 7-Hydroxymitragynine]
Oral lethality outcome: none of the mice expired
